Structures can show the parent of a compound that is named as a salt.
Each compound was assayed against hNav1.7 (Homo sapiens (Human), UniProt Q15858) (assay: Tritiated sulfonamide competitive binding to membranes from cells expressing hNav1.7 and the β1 subunit;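 note: Filter-bound radioactivity counted by liquid scintillation, nonspecific binding defined with excess unlabelled ligand, IC50 fitted to percent inhibition of specific binding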).

The chains behind the UniProt entries cited, without tags or fusion partners. A line that says so, or that is headed by a name, gives the form on record, which may keep a tag or linker.
UniProt Q15858, other isoform, or with tags, fused parts or gaps: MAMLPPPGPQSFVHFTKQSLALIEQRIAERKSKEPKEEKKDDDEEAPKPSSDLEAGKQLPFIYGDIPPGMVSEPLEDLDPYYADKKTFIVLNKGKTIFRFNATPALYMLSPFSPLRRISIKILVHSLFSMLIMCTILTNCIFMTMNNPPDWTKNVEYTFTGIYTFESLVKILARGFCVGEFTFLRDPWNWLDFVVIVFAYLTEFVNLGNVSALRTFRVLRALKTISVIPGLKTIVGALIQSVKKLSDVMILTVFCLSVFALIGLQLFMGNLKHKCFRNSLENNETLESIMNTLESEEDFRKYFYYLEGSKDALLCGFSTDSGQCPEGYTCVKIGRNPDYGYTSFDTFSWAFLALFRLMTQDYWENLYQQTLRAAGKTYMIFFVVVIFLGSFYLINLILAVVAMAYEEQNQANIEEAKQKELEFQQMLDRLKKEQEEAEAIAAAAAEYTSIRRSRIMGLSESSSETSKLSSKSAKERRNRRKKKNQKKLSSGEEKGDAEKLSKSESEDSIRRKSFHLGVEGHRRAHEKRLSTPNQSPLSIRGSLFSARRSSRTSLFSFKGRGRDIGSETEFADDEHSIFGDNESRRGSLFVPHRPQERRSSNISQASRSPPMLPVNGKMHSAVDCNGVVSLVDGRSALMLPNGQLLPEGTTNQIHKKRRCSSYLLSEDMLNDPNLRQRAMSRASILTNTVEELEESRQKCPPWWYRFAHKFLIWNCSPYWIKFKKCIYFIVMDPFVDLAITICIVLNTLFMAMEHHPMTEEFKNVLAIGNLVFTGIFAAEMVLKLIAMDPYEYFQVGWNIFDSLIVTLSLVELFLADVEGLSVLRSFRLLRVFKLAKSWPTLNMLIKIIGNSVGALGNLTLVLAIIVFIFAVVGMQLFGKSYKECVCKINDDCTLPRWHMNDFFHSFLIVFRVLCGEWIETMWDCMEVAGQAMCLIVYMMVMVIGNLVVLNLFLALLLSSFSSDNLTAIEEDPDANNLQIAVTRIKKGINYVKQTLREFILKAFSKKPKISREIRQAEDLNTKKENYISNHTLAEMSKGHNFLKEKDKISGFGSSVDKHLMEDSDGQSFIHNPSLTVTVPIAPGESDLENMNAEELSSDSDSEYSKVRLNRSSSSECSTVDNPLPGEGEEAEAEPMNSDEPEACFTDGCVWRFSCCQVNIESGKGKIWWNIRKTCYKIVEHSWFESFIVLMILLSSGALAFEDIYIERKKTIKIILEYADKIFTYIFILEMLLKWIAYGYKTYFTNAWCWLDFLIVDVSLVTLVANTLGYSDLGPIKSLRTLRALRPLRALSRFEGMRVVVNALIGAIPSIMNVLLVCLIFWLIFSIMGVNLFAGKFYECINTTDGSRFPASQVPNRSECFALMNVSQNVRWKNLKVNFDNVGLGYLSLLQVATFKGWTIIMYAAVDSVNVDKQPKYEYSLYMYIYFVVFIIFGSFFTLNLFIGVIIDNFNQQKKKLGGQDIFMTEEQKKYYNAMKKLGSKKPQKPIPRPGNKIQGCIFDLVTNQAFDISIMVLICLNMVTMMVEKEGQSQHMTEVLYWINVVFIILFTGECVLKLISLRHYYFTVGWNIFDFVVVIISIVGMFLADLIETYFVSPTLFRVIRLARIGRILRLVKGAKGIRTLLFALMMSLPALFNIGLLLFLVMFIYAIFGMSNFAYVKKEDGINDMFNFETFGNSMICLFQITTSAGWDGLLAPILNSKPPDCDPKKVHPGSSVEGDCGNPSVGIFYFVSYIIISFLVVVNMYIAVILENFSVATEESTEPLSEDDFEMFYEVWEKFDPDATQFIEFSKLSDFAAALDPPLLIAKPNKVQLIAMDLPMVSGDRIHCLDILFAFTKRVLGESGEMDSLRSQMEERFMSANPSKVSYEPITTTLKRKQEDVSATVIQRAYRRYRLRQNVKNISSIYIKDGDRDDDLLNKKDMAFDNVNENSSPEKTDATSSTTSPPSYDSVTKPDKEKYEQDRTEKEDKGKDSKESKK

Going from O=C(NS(=O)(=O)N1CCC1)c1cc(C2CC2)c(O[C@@H]2CCCN(c3ccccc3)C2)cc1F [Example 41, (R)—N-(azetidin-1-ylsulfonyl)-5-cyclopropyl-2-fluoro-4-((1-phenylpiperidin-3-yl)oxy)benzamide] to COCC1(c2ccc(F)cc2)CCN(Cc2cc(F)c(C(=O)NS(=O)(=O)C3CC3)cc2C2CC2)CC1 [Example 516, 5-cyclopropyl-N-(cyclopropylsulfonyl)-2-fluoro-4-((4-(4-fluorophenyl)-4-(methoxymethyl)piperidin-1-yl)methyl)benzamide, trifluoroacetic acid salt], the IC50 rises from 13.4 nM to 213 nM (16-fold). The first is the more potent here.

For COCC1(c2ccc(F)cc2)CCN(Cc2cc(F)c(C(=O)NS(C)(=O)=O)cc2C2CC2)CC1 [Example 515, 5-cyclopropyl-2-fluoro-4-((4-(4-fluorophenyl)-4-(methoxymethyl)piperidin-1-yl)methyl)-N-(methylsulfonyl)benzamide, trifluoroacetic acid salt], the IC50 was 384 nM.

Source: US9546164B2 (GENENTECH, INC., priority 2013, dated 2017)
